Experimental data as given in article PMC7956476, “Quinoline Functionalized Schiff Base Silver (I) Complexes: Interactions with Biomolecules and In Vitro Cytotoxicity, Antioxidant and Antimicrobial Activities” (Molecules, 2021).

System: calf thymus DNA (CT-DNA)
Experiment: CT-DNA electronic absorption titration (Wolfe–Shimer)
Format: binding
Conditions: absorption titration with CT-DNA
Experimental: The interaction of the L1–L5 and complexes Q1–Q15 with calf thymus-DNA was carried out in a Phosphate buffer saline solution pH 7.2 stored at 4 °C. The DNA stock solution was prepared by dissolving CT-DNA sodium salt in Phosphate buffer saline solution with continuous stirring overnight. It was filtered and stored at 4 °C and used within four days. […] A fixed amount of the L1–L5 and complexes Q1–Q15 (50 µM) were prepared by dissolving an appropriate amount in DMSO. […] Therefore, in all the experimental of the interaction of L1–L5 and complexes Q1–Q15 with biomolecules, the final concentration of DMSO in the incubation mixture was ~2% (v/v).
The binding modes of L1–L5 and complexes Q1–Q15 to CT-DNA were characterized through electronic absorption titration by varying concentrations of CT-DNA (0–30 µM) in phosphate buffer saline solution against fixed concentrations (20 µM) of L1–L5 and complexes Q1–Q15. […] The absorbance of CT-DNA is cancelled by adding equivalent amounts of CT-DNA to both the tested compounds and the reference solutions.

O=[N+]([O-])[O-].[Ag+] [AgNO3, silver nitrate, reference compound] was tested, and the “hypochromic shift in the absorption bands on addition of CT-DNA” value was 23.64–50.86%.
